Legend:
[1] = target: Metabotropic glutamate receptor 5 (Rattus norvegicus, UniProt P31424); assay: Effective concentration against metabotropic glutamate receptor 5 of rat
Method in brief: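 FLIPR calcium assay in CHO cells transfected with human or rat mGluR5. Compound added with a low glutamate concentration (300 nM), measuring increase in response; compound alone (up to 100 µM) checked for agonist activity. EC50 for potentiation and maximal fold potentiation over the glutamate response determined; values may vary up to 5-fold day to day owing to steep agonist curves (nH ~2).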

Amino acid sequences for entries named in this document (tags omitted).
UniProt P31424, whole entry: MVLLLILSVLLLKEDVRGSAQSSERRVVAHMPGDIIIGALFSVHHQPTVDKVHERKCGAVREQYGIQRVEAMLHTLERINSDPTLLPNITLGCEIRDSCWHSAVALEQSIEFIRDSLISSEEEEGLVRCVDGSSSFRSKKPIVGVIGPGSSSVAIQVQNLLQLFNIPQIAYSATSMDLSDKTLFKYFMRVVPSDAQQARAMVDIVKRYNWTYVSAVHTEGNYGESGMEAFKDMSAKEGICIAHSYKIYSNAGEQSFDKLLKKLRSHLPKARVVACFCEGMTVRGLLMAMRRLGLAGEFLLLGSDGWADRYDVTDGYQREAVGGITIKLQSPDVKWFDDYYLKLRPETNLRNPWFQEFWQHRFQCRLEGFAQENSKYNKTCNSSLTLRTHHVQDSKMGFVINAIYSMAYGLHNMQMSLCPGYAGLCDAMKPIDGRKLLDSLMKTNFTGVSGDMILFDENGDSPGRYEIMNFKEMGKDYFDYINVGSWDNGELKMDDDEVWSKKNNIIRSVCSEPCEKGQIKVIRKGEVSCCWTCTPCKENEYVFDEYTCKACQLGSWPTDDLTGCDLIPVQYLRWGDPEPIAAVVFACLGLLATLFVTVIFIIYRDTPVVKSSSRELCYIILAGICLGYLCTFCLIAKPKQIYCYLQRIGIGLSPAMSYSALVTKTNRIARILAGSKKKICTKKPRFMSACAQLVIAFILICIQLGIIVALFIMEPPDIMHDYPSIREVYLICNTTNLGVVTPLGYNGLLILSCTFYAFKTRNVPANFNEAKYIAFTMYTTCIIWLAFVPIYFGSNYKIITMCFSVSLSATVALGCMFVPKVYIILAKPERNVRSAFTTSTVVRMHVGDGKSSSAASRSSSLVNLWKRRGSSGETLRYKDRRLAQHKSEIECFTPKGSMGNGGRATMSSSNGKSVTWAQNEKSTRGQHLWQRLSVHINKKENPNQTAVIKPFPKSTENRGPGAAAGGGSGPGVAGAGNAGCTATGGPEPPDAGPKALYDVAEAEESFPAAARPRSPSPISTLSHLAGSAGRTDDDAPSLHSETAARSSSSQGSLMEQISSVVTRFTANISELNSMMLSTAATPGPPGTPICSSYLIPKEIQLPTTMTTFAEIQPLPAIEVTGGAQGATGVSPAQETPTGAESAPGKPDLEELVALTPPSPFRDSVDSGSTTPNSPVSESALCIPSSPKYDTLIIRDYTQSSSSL
UniProt P41594, whole entry: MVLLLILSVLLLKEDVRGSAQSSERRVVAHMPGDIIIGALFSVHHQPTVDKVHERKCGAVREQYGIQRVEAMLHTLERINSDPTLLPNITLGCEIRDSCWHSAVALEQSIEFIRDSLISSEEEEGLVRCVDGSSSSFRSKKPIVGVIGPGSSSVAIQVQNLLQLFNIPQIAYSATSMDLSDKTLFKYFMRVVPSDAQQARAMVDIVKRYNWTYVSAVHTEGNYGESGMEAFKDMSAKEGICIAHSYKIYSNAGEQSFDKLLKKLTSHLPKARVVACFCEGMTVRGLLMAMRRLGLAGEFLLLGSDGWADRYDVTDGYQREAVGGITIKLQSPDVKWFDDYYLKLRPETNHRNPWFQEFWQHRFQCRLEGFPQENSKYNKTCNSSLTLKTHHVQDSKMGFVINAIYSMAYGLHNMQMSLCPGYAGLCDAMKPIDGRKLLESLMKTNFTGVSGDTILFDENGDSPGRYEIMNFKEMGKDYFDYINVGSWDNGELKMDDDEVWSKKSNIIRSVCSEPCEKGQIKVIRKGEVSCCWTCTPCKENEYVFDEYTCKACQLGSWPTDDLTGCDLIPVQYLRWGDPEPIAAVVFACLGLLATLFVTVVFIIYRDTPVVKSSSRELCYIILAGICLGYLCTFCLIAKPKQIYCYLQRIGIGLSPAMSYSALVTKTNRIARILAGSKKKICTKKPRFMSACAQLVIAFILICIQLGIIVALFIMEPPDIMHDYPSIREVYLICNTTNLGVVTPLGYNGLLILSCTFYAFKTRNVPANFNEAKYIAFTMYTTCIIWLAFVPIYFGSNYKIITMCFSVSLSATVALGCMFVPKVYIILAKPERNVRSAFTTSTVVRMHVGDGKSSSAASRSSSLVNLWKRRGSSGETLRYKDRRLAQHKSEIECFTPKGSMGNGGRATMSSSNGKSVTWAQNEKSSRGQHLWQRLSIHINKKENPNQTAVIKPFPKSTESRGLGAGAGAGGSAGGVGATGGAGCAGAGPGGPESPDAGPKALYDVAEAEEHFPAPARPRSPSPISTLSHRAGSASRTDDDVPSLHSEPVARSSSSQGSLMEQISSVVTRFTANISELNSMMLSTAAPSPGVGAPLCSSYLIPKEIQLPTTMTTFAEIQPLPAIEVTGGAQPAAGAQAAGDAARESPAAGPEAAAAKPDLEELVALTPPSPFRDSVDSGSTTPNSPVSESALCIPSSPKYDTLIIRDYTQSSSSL

[2] = target: Metabotropic glutamate receptor 5 (Homo sapiens, UniProt P41594); assay: Effective concentration against metabotropic glutamate receptor 5 of human transfected into CHO cells; assay type: cell-based

With `N#Cc1cccc(C(=O)Nc2cc(-c3ccccc3)nn2-c2ccccc2)c1` the EC50 [1] was 20 nM and the EC50 [2] was 10 nM.

— ChEMBL document CHEMBL1138840, “Discovery of positive allosteric modulators for the metabotropic glutamate receptor subtype 5 from a series of N-(1,3-diphenyl-1H- pyrazol-5-yl)benzamides that potentiate receptor function in vivo” (J Med Chem, 2004)
